37 molecules from PubChem BioAssay AID2650 (Broad Institute, 2010) can be followed below.

By UniProt entry, the sequences of proteins in these tests, tags left out.
UniProt P49840, whole entry: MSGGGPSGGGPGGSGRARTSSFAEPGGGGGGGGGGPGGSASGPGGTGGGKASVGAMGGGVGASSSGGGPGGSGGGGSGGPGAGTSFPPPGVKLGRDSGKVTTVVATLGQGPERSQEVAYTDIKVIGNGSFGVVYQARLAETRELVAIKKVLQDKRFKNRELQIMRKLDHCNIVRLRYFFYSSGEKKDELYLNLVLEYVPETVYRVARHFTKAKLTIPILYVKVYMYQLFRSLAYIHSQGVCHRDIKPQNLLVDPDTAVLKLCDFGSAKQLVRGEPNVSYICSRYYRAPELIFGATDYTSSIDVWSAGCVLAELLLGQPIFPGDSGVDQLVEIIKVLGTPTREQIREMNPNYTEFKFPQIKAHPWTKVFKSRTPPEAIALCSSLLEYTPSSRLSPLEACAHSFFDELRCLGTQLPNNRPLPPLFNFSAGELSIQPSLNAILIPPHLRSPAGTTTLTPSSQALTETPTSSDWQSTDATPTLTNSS

Usually inhibition stands for the change of the read-out against control, counted positive when it falls.

SMILES strings stand for the structures. The list shows a part of the results, in another mix than the full data. The source made the active and inactive calls.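 The calls were made as follows: active = more than half of replicates show inhibition above 20%; inconclusive = some but at most half of replicates above 20% inhibition; inactive = no replicate shows inhibition above 20%.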

The target in the test is Glycogen synthase kinase-3 alpha (Homo sapiens) (UniProt P49840). Nature of the test: blockers of GSK3A enzyme activity – biochemical, luminescence, cell-free homogeneous, HTS, primary screen (AID 2650).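 Also: GST-tagged GSK-3 alpha with peptide substrate and 25 µM ATP; 0% = DMSO neutral wells and 100% = GW8510 positive control wells.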 Conditions: GSK-3 alpha kinase, ADP-Glo luminescence, 60 min; at 10 µM; active compounds read high. In general terms: ADP-Glo first removes unused ATP, then detects ADP through luciferase.
Consider `N#CC1(Nc2ccccc2)CCN(CCc2ccccc2)CC1`, for which the inhibition is inactive: 0.613%.
In the case of `CCN1CCC(Nc2ccc(Cl)cc2)CC1` it was inactive: 1.33%; in that of `O=C(NCC1(N2CCCCC2)CCCCC1)c1cccc([N+](=O)[O-])c1`, inactive: -2.41%; in that of `O=C(NCC1(N2CCCCC2)CCCCC1)c1ccc(OC(F)F)cc1`, inactive: -1.47%.
As for `COc1cc(C(=O)NCC2(N3CCCCC3)CCCCC2)ccc1OC(F)F`, the figure is inactive: 2.62%; as for `O=C(NCC1(N2CCOCC2)CCCCC1)c1cc(=O)[nH]c2ccccc12`, inactive: 0.0504%.
As to `CN1CCN(CCOC(=O)C(O)(c2ccccc2)c2ccccc2)CC1`, the inhibition is inactive: -2.49%.
As for `COc1ccc(NC2CCN(C(=O)OC(C)(C)C)CC2)cc1`, the figure is inactive: -2.1%.
As for `O=C(NCC1(N2CCCCC2)CCCCC1)c1cccc(C(F)(F)F)c1`, the figure is inactive: 2.61%.
As for `N#Cc1ccc(C(=O)NCC2(N3CCCCC3)CCCCC2)cc1`, the figure is inactive: -0.621%; as for `CC(C)(C)OC(=O)N1CCC(N(C(=O)c2ccccc2)c2ccc(Cl)cc2)CC1`, inactive: -0.447%.
Consider `CN(C)C1(CNC(=O)c2cccc(C#N)c2)CCCCC1`, for which the inhibition is inactive: 4.37%.
With `CCCN1CCC(Nc2cc(OC)cc(OC)c2)CC1`, the inhibition was inactive: -2.62%.
In the case of `c1ccc(CN2CCC(Nc3ccccc3)CC2)cc1`, the inhibition was inactive: -0.254%.
`COc1ccc(C(=O)NCC2(N3CCOCC3)CCCCC2)cc1OC`: the inhibition is inactive: -1.61%.
In the case of `COc1cc(C(=O)NCC2(N3CCOCC3)CCCCC2)cc(OC)c1C` it was inactive: -0.48%; in that of `O=C(NCC1(N2CCOCC2)CCCCC1)c1cc(Br)ccc1Cl`, inactive: 13.9%; in that of `CCc1cc(C(=O)NCC2(N3CCCCC3)CCCCC2)sc1C`, inactive: -0.472%.
As for `O=C(OC1CN2CCC1CC2)C1c2ccccc2C=Cc2ccccc21` (configuration not stated), the figure is inactive: -2.12%; as for `CCOC(=O)N1CCC(Nc2ccc(C)cc2)CC1`, inactive: -1.23%.
Consider `N/C(=N\O)c1c(N)no[n+]1[O-]`, for which the inhibition was inactive: -0.34%.
In the case of `O=C(O)C1(Nc2ccccc2)CCN(Cc2ccccc2)CC1` it was inactive: 2.15%; in that of `CC(C)(C)OC(=O)N1CCC(Nc2ccccc2)CC1`, inactive: -2.6%; in that of `CCCOc1ccc(C(=O)NCC2(N(C)C)CCCCC2)cc1`, inactive: -1.27%.
As for `CN1CCC(Nc2ccc(F)c(Cl)c2)CC1`, the inhibition was inactive: -3.85%.
For `CCOc1ncccc1C(=O)NCC1(N2CCOCC2)CCCCC1`, the inhibition is inactive: 0.26%.
As for `CN1CCC(Nc2ccc(Cl)cc2)CC1`, the figure is inactive: 0.819%; as for `CCCOc1ccc(C)cc1CN(CCCl)CCCl`, inactive: 2.56%.
In the case of `COc1cc(OC)cc(C(=O)NCC2(N3CCOCC3)CCCCC2)c1` it was inactive: -1.4%.
In the case of `COc1cccc(C(=O)N(c2cc(C)cc(C)c2)C2CCN(C(=O)OC(C)(C)C)CC2)c1` it was inactive: 0.565%; in that of `CCC(CO)(C(=O)OC1CN2CCC1CC2)c1ccccc1` (configuration not stated), inactive: -0.882%; in that of `Fc1ccccc1NC1CCN(Cc2ccccc2)CC1`, inactive: 0.884%.
Consider `Cc1ccc(C(=O)NCC2(N3CCCCC3)CCCCC2)o1`, for which the inhibition was inactive: 0.88%.
In the case of `COc1cc(OC)cc(C(=O)NCC2(N3CCCCC3)CCCCC2)c1` it was inactive: 2.43%; in that of `CN(C)c1ccc(C(=O)NCC2(N3CCCCC3)CCCCC2)cc1`, inactive: -3.94%; in that of `O=C(NCC1(N2CCCCC2)CCCCC1)c1ccco1`, inactive: -1.28%.
Consider `CCN1CCC(Nc2cccc(F)c2)CC1`, for which the inhibition was inactive: 0.664%.
